As usually defined, the IC50 is the concentration that inhibits the measured activity by half. Usually inhibition stands for the share of the control response that was lost under treatment.

Protein sequences, listed by entry. Tags and fused reporters are not part of them. Lines headed by an entry give the natural chain unless they say otherwise; changes in a name come on top.
UniProt P80299: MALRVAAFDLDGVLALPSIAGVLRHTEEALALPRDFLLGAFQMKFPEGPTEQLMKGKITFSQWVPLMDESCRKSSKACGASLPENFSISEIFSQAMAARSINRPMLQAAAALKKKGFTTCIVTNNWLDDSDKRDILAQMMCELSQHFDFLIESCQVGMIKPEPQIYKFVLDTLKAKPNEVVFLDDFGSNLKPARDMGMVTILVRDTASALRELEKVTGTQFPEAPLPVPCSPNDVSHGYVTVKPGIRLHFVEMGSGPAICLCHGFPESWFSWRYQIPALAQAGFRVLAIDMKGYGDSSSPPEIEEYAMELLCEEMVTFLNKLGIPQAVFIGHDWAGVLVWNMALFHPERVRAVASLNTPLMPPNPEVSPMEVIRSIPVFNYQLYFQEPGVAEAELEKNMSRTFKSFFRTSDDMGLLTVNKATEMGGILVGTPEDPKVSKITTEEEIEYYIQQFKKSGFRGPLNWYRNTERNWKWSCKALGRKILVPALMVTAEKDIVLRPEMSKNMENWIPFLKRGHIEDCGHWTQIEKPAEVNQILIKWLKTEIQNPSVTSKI
UniProt Q14524, whole entry: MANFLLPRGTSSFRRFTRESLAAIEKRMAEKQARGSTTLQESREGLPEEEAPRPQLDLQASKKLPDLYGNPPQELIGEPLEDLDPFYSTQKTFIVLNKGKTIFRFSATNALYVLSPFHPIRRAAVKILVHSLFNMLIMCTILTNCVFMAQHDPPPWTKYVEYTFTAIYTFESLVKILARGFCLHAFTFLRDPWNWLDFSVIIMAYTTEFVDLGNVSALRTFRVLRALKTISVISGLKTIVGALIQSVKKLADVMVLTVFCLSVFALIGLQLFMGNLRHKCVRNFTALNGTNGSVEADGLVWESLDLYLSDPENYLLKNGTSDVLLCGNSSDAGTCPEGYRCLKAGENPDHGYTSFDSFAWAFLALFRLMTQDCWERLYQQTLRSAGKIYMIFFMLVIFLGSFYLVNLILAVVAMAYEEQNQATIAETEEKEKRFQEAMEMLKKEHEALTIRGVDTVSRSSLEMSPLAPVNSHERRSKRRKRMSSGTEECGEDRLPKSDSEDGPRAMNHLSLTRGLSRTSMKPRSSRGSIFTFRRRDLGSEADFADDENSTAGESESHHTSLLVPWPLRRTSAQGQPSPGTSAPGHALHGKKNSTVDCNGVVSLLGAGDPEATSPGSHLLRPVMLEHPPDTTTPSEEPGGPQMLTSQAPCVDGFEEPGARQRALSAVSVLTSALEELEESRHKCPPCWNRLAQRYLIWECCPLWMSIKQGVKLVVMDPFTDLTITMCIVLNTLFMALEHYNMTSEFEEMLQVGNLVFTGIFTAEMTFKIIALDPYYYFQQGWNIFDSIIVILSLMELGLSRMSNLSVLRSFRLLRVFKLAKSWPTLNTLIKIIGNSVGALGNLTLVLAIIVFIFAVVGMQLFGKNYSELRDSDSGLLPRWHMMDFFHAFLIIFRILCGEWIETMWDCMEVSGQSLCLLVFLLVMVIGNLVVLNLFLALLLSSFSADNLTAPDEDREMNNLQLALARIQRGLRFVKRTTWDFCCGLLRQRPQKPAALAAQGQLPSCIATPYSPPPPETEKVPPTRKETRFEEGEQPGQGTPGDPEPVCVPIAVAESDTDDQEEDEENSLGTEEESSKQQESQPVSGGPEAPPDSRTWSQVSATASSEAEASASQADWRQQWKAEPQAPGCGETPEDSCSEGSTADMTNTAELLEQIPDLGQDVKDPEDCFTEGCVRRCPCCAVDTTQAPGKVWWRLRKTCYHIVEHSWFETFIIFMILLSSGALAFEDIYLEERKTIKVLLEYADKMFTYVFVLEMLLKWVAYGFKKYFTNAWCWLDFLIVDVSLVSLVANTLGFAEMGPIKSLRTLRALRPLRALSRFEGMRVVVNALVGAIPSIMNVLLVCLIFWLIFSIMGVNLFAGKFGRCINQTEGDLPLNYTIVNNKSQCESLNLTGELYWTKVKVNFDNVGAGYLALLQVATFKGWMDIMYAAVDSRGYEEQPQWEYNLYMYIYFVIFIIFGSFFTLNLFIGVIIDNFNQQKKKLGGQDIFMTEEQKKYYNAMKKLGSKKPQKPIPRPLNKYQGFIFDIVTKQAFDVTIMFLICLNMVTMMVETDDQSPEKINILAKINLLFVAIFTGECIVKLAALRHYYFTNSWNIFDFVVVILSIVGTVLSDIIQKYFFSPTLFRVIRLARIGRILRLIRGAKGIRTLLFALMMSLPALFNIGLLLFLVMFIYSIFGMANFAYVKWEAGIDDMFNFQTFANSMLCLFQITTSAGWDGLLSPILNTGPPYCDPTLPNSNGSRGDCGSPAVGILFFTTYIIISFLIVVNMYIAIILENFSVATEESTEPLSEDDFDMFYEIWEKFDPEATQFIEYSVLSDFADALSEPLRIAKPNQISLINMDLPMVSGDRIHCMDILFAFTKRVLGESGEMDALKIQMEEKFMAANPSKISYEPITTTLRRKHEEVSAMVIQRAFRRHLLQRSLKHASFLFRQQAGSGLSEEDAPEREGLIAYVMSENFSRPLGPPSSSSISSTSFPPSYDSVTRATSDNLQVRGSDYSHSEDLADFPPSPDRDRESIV

In ChEMBL document CHEMBL1154229 (Bioorg Med Chem Lett, 2009) one finds IC50 and inhibition data, which are given here for three compounds.

Assay [1] deals with Bifunctional epoxide hydrolase 2 (Rattus norvegicus, UniProt P80299). Put plainly: Inhibition of rat soluble epoxide hydrolase.
Assay [2] concerns the target Sodium channel protein type 5 subunit alpha (Homo sapiens, UniProt Q14524). Put plainly: Inhibition of Nav1.5 channel.
For assay [3], the target named is Bifunctional epoxide hydrolase 2 (Rattus norvegicus) (UniProt P80299). Put plainly: Inhibition of soluble epoxide hydrolase in rat whole blood assessed as reduction of DHET production at 1 uM after 15 mins relative to control. The class given is tissue-based.
For assay [4] the target is unchanged. Put plainly: Inhibition of soluble epoxide hydrolase in rat whole blood assessed as reduction of DHET production at 1 uM after 30 mins relative to control. The class given is tissue-based.
The target is the same in assay [5]. Put plainly: Inhibition of soluble epoxide hydrolase in rat whole blood assessed as reduction of DHET production at 1 uM after 60 mins relative to control. The class given is tissue-based.

In assay [1], `CC1(c2ccccc2)CCCN(C(=O)NCCCc2cccnc2)C1` (stereo not given) gave an IC50 of 0.006 µM.

`CC1(c2ccccc2)CCCN(C(=O)NCc2ccc(-c3cccc(Cl)c3)cc2)C1` (stereo not given) returned an IC50 in assay [2] of 10 µM.

For the compound `O=C(O)CCC1(c2ccccc2)CCCN(C(=O)Nc2ccc(Cl)cc2)C1` (stereo in doubt), the inhibition turned out to be 3.4% in assay [3], 5.3% in assay [4] and 8.1% in assay [5].
